Source: patent publication US20100029704A1, “SALT OF NONSTEROIDAL ANTI-INFLAMMATORY DRUG AND ORGANIC AMINE COMPOUND AND USE THEREOF” (priority 2007, published 2010)

Experiment: Skin permeability test using isolated rat abdominal skin (Franz-type diffusion cell)
Conditions: accumulated up to 6 hours; 2.5 wt % as NSAID free acid in diethyl sebacate/propylene glycol; 32° C.

Substance: diclofenac-donepezil salt
- diclofenac permeation amount: 14.3 μg/cm^2

Substance: flurbiprofen-donepezil salt
- flurbiprofen permeation amount: 28.3 μg/cm^2

Substance: ketoprofen-tolperisone salt
- Ketoprofen permeation amount: 60.3 μg/cm^2
